Experimental data published in patent US7282522B2, “Hydroxamic acid derivatives and the method for preparing thereof” (Amorepacific Corporation, priority 2003, dated 2007).

The chains behind the UniProt entries cited, without tags or fusion partners.
UniProt P13631, whole entry, species assumed: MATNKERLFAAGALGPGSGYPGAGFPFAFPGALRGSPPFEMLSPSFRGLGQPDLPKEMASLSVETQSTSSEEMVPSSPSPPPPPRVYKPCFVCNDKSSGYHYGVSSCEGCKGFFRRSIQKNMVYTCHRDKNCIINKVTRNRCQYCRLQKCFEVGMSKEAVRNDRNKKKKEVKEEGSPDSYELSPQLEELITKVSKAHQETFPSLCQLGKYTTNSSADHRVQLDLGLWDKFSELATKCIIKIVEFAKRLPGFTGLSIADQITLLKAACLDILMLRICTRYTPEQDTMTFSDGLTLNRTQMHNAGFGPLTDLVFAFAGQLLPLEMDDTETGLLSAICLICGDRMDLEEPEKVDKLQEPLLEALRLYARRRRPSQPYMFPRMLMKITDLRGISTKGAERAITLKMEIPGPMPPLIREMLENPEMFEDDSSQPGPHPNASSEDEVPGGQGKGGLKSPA

Assays:
procollagen type I = test: Effect on collagen biosynthesis (procollagen type I ELISA) in human fibroblasts; assay type: cell-based; details: 10^−4M, 24 hours, serum-free medium, relative to control group = 100
Procedure: Human fibroblasts were seeded into 24-well plate at 1×10^5 cells per well and then cultured to 90% of growth.
For each supernatant, procollagen production was measured with procollagen type I ELISA kit.

rabbits = test: Primary skin irritation test on animals (Draize P.I.I.); details: depilated back
collagenase = test: Inhibition of collagenase expression in human fibroblasts (ELISA kit); assay type: cell-based; details: 10^−4M, 24 hours, serum-free medium, relative to control group = 100
Procedure: Human fibroblasts were seeded into 96-well microtiter plate at 5,000 cells per well and then cultured to 90% of growth in DMEM (Dulbecco's Modified Eagle's Media) supplemented with 2.5% fetal bovine serum. Then, the fibroblastes were cultured in serum-free DMEM for 24 hours and treated for 24 hours with 10^−4M of hydroxamic acid derivatives of Examples 1˜55, retinol or retinoic acid in serum-free medium, and then the culture fluid was collected.
For each culture fluid, collagenase production was measured with collagenase kit (commercialized by AmershamPharmacia Biotech). Firstly, the culture fluid was added to 96-well plate spread with primary collagenase antibody and then antigen-antibody reaction was performed in an incubator for 3 hours. […] The absorbance of the yellow 96-well plate was measured at 405 nm using absorptiometer. Collagenase expression was calculated by the following equation 1. Herein, the absorbance of the culture fluid collected from the medium with no material treated was used as a control. Collagenase expression (%)=(Absorbance of test group with said material treated/Absorbance of control group with no material treated)×100 [Equation 1]
Collagenase expression was evaluated as a relative value, in consideration that the value of control group with no material treated is 100.

RARγ = molecular target: T1, RARγ (Homo sapiens, UniProt P13631); test: RARE-luciferase reporter assay in transfected CV-1 cells (affinity to retinoic acid receptor), RARγ; assay type: cell-based; details: treated 24 hours at final concentration 10^−4M, control group 5000
T1 construct: expressed in transfected cells; host or cells: CV-1 cells (ATCC)
Description: This example illustrates affinities of hydroxamic acid derivatives obtained in Examples 1 to 55 to retinoic acid receptor, in comparison with retinol and retinoic acid.
Receptor-expression plasmid, pECE-RARα and pECE-RARγ were engineered by the prior method (Mol. Cell. Biol. 1996, 16, 1138-1149). RARE-tk-Luc, i.e. RARE reporter was obtained by inserting RARE fragment from b-RARE-tk-CAT into pGL3 luciferase basic vector. CV-1 cells were obtained from ATCC (American Type Culture Collection).
CV-1 cells were seeded into 96-well microtiter plate at 5,000 cells per well and cultured in DMEM (Dulbecco's Modified Eagle's Media) supplemented with 2.5% fetal bovine serum. 24 Hours later, the cells were transfected with 10 ng of pECE-RARα, long of pECE-RARγ, 100 ng of reporter plasmid and 100 ng of β-galactosidase-expression vector, using LipofectaminPlus (GIBCO BRL, grand island, N.Y.). 24 Hours post-transfection, the cells were treated for 24 hours with hydroxamic acid derivatives of Examples 1˜55 or retinol at a final concentration of 10^−4M or with retinoic acid at a final concentration of 10^−5M, which is 10 times lower concentration than those of the former.

elastase = test: Inhibition of elastase expression in human fibroblasts (ELISA kit); assay type: cell-based; details: 10^−4M, 24 hours, serum-free medium, relative to control group = 100
Procedure: For each culture fluid, elastase production was measured with elastase kit (commercialized by AmershamPharmacia Biotech). Firstly, the culture fluid was added to 96-well plate spread with primary elastase antibody and then antigen-antibody reaction was performed in an incubator for 3 hours. Later, chromophore-conjugated secondary antibody was added to the 96-well plate and then reacted for 15 minutes. Then, color former was added thereto, to induce development at room temperature for 15 minutes. 1M of sulfuric acid was added to stop the reaction. […] The color density depends on the progress of the reaction. The absorbance of the yellow 96-well plate was measured at 405 nm using absorptiometer. Elastase expression was calculated by the following equation 2. Herein, the absorbance of the culture fluid collected from the medium with no material treated was used as a control. Elastase expression (%)=(Absorbance of test group with said material treated/Absorbance of control group with no material treated)×100 [Equation 2]
Elastase expression was evaluated as a relative value, in consideration that the value of control group with no material treated is 100.

white guinea pigs = test: Phototoxicity test (UVA irradiation); details: 50 μl of 1%(w/v) solution, UVA 320~380 nm 15 J/cm^2, observed 24, 48 and 72 hours

## CN(O)C(=O)c1ccc(C(=O)NC23CC4CC(CC(C4)C2)C3)cc1 [Example 44, N-adamantyl [4-(N-hydroxy-N-methylcarbamoyl)phenyl]carboxyamide]
Procollagen type I
  Collagen biosynthesis (%): 107%
rabbits; 0.5 ml of 1% solution in 1,3-butylene glycol:ethanol 7:3, observed 24 or 72 hours later
  P.I.I. (Primary Irritation Index): 0.678
rabbits; 1% solution, according to Draize's P.I.I.
  Evaluation (skin irritation): No irritation
collagenase
  Collagenase expression (%): 83%
RARγ
  Luciferase activity RARγ: 10700
elastase
  Elastase expression (%): 63%
White guinea pigs
  Phototoxic index: 0
